The values that follow come from PMC6745035, “Novel tetrahydroacridine derivatives with iodobenzoic moieties induce G0/G1 cell cycle arrest and apoptosis in A549 non-small lung cancer and HT-29 colorectal cancer cells” (Molecular and Cellular Biochemistry, 2019).

By UniProt entry, the sequences of proteins in these tests, tags left out. Residues count along the entry.
UniProt Q2YDK3, 36-553 limits assumed: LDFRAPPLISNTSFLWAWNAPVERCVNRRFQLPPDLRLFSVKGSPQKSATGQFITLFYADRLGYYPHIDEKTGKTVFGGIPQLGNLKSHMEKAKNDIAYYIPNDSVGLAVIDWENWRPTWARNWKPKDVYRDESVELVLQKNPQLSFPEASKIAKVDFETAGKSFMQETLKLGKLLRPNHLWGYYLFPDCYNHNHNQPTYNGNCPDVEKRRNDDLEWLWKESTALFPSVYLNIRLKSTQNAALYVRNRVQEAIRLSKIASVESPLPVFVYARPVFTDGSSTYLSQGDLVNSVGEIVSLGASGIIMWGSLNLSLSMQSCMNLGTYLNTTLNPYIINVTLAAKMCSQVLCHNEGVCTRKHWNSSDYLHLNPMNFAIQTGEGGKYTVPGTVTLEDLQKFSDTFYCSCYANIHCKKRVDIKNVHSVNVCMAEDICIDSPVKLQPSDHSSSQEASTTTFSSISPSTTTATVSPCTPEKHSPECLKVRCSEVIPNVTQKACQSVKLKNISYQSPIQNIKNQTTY

By IC50 is commonly meant the concentration that gives 50% inhibition.

The subject of series [1] is 253J B-V and 253J B-V cisplatin-resistant cells. Nature of the series: Cytotoxicity on cisplatin-resistant and non-resistant 253J B-V cells. The conditions noted are these: 24 h, 48 h, 72 h; IC50 of A549, IC50 of HT-29, 1/2IC50, 1/4IC50.
Series [2] concerns the target hyaluronidase from bovine testes Type I-S (Bos taurus, UniProt Q2YDK3). Description: Hyaluronidase inhibition assay (turbidimetric). Format: biochemical. The settings on record: read-out: HYAL IC50 ± SD.

As to `O=C(NCCCCNc1c2c(nc3ccccc13)CCCC2)c1cccc(I)c1` [Compound 1f], the “Cytotoxic effect on cisplatin-resistant versus non-resistant 253J B-V cells (in words)” value in series [1] is “resistant cells were more sensitive”. Further, the IC50 in series [2] came to 384 µM.
